The source of these data is PMC7473988 (Journal of Experimental Pharmacology, 2020).

By UniProt entry, the sequences of proteins in these tests, tags left out.
UniProt P31645, whole entry: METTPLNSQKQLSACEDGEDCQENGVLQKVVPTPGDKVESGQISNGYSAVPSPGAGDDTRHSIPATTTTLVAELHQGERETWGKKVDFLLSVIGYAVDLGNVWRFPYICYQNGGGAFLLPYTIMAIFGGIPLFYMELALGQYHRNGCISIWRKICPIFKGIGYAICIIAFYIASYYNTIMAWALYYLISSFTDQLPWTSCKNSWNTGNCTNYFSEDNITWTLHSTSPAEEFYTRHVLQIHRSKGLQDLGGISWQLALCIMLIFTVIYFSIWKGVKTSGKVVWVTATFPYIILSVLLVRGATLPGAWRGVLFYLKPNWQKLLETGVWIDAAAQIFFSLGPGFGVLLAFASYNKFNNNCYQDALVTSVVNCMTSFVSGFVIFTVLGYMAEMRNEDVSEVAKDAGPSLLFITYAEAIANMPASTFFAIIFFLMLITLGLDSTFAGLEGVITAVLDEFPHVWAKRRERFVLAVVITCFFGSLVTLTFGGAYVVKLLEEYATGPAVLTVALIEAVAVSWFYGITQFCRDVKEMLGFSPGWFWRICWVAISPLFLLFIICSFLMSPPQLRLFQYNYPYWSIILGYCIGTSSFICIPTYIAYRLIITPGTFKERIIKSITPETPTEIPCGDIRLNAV

Molecules are shown by their SMILES. Where a name gives a salt, the structure may show the parent alone.

One assay deals with hNET. To be noted: read-out: NET binding KD, competition assay, [3H]-nisoxetine; cited from earlier work.
A further assay deals with hDAT. The note with it: read-out: DAT binding KD; competition assay, [3H]-WIN35428, hDAT; cited from earlier work.
Another assay addresses SERT (Homo sapiens, UniProt P31645). Nature of the assay: cell-based.

In general, Kd refers to a measure of binding affinity in units of concentration. As a reminder, the IC50 is the concentration that gives 50% inhibition. The low end stands for higher potency, the high end for lower potency.

For the compound `CCOc1ccccc1OCC1CNCCO1` (stereo not drawn) [Viloxazine, Viloxazine hydrochloride], the figures for the Kd at hNET and on hDAT were 155 nM and greater than 100 µM, respectively. On SERT, this compound had a concentration for half-maximal inhibition (IC50) of 257 µM.
